Assay results taken from ChEMBL document CHEMBL5316288, “Synthetic Strategies for Improving Solubility: Optimization of Novel Pyrazolo[1,5-a]pyrimidine CFTR Activator That Ameliorates Dry Eye Disease” (J Med Chem, 2023).

What was measured:
[1] = target: T1, Anoctamin-1 (Homo sapiens) (UniProt Q5XXA6); test: Activation of human ANO1 expressed in rat FRT cells assessed as increase in calcium activated apical membrane chloride current at 30 uM incubated for 20 mins in presence of ATP by patch-clamp assay; format: cell-based
T1 sequence (whole entry): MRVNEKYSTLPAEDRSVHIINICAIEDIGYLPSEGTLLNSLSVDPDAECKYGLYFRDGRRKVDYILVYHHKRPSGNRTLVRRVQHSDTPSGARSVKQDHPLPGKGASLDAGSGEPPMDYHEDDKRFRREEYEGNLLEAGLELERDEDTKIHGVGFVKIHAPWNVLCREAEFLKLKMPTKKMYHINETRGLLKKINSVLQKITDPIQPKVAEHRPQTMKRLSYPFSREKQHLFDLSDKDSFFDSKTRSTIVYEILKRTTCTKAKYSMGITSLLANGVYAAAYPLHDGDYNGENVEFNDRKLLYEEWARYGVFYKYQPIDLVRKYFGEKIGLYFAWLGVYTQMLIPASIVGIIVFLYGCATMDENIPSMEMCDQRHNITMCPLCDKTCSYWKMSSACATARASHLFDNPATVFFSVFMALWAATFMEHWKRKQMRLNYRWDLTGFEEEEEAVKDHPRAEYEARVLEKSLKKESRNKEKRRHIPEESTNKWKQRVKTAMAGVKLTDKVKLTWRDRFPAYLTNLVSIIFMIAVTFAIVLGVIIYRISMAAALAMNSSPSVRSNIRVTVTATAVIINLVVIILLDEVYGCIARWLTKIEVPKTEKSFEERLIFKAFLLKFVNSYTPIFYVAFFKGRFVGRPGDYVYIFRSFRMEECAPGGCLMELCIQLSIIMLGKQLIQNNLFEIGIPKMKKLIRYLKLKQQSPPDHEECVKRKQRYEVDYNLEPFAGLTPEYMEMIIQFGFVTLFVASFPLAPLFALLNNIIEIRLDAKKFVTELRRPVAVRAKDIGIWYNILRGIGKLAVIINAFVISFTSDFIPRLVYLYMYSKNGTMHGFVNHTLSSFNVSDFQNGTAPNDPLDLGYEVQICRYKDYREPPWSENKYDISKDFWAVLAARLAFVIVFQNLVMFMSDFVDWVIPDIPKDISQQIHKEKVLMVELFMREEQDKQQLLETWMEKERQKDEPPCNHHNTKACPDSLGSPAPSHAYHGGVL

[2] = target: T1, Anoctamin-1 (Homo sapiens); test: Activation of human ANO1 expressed in rat FRT cells assessed as increase in calcium activated apical membrane chloride current at 30 uM incubated for 20 mins in presence of ATP and Ani9 by patch-clamp assay; format: cell-based

`COc1ccc(-c2ccnc3cc(C(=O)N4CCN(C(=O)c5ccccc5)[C@@H](C)C4)nn23)cc1OC` was tested, and the Activity [1] was “inactive” and the Activity [2] was “inactive”.

Active and inactive are the calls of the source. The rule behind the calls is not given here.
